In series [1] the test system is HCV replicon H/FL-Neo (genotype 1a (H77), full length construct). Conditions: HCV genotype 1A replicon.
Series [2] relates to replicon cell line containing H/FL-Neo.

“Interferon αIFNB2: recombinant human interferon alpha 2b, positive antiviral assay control”: the “S.I. (CC50/EC50)” value in series [1] was more than 5556. In series [1] (interferon in IU/mL), this substance registered an EC50 of 1.8 ± 0.2 IU/mL and an EC90 of 8.0 ± 0.6 IU/mL. The CC50 in series [2] was >10,000 IU/mL.
